Source: ChEMBL document CHEMBL5715260, “Selectivity Literature for EUbOPEN Chemogenomic Library” (2024)

Biological target: T1, Bromodomain and PHD finger-containing protein 3 (Homo sapiens) (UniProt Q9ULD4)
T1 sequence (whole entry): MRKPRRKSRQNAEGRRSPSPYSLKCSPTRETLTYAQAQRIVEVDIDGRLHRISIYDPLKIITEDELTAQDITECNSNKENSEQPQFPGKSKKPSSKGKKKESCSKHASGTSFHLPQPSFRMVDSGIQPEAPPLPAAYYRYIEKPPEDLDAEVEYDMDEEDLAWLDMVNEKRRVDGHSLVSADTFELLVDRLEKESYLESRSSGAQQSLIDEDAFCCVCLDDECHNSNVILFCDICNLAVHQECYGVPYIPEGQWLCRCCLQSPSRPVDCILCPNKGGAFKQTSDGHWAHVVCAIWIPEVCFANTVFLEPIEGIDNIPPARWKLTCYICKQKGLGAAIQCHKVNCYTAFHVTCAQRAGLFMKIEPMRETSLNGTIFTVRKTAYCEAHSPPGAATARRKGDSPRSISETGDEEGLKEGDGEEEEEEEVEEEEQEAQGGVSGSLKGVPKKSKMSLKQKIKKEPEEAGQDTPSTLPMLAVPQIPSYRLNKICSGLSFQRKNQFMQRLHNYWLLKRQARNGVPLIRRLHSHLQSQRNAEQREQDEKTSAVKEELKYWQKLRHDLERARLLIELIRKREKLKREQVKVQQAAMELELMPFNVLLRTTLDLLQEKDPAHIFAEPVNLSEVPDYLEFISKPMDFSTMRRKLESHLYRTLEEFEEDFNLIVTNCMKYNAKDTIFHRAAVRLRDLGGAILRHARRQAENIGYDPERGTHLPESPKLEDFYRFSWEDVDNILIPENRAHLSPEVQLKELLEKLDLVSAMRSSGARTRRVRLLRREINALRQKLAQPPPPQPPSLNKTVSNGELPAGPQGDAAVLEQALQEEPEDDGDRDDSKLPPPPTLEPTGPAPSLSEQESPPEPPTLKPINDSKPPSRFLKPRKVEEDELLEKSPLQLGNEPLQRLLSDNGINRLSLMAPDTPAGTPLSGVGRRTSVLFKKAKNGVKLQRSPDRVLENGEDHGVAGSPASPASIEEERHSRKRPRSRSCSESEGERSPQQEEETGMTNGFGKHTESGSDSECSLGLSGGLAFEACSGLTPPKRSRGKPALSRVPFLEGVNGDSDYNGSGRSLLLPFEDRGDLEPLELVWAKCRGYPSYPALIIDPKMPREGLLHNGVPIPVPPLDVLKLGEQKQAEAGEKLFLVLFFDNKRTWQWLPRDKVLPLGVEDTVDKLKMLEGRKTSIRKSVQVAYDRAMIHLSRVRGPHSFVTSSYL

With `COc1cc2c(cc1NS(=O)(=O)c1ccc(Br)cc1C)n(C)c(=O)n2C` the ΔTm was 3.3 °C.
